Literature values as cited in patent US20140171490A1, “Method and Device for Ophthalmic Administration of Active Pharmaceutical Ingredients” (PHARMALIGHT INC., priority 2005, published 2014).

Test system: eye
Conditions: reported in Saettone et al. Int. J. Pharma. 1996; cited from earlier work

Which “irritation to the eye” value does the source give for escin here?
The value was “strongly irritating to the eye”.
